Measurements: ChEMBL document CHEMBL1133369, “Synthesis and preliminary biological evaluation of [3H]-MRE 3008-F20: the first high affinity radioligand antagonist for the human A3 adenosine receptors” (Bioorg Med Chem Lett, 2000)

Amino acid sequences for entries named in this document (tags omitted).
UniProt P30542, whole entry, looked up: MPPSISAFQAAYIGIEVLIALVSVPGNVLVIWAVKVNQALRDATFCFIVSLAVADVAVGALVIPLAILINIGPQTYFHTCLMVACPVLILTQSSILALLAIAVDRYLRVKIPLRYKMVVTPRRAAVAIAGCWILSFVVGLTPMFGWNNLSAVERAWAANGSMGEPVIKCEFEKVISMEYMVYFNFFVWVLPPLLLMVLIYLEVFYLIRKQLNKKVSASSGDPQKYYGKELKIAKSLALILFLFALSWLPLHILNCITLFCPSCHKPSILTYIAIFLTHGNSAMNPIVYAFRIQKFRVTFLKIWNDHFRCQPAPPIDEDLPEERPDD
UniProt P0DMS8, whole entry, looked up: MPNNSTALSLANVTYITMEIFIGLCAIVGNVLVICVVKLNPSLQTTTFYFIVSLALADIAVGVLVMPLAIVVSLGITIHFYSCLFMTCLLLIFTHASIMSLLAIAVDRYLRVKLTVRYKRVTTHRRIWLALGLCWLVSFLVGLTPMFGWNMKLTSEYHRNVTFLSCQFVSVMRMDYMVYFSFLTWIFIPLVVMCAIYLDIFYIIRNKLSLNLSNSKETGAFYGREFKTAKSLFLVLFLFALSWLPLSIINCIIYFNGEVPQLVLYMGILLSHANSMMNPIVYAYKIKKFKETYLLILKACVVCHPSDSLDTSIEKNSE

Legend:
[1] = biological target: Adenosine receptors; A1 & A3 (Homo sapiens) (UniProt P30542+P0DMS8); assay: Selectivity ratio for binding affinities of human Adenosine A1 and Adenosine A3 receptors; assay type: protein assay
[2] = biological target: Adenosine receptors; A2a & A3 (Homo sapiens) (UniProt P0DMS8+P29274); assay: Selectivity ratio for binding affinities of human Adenosine A2A and Adenosine A3 receptors; assay type: protein assay

## CCCn1cc2c(nc(NC(=O)Nc3ccc(OC)cc3)n3nc(-c4ccco4)nc23)n1
[1]
  Ratio: 4150
[2]
  Ratio: 486
